Experimental findings from patent publication US8497349B2, “Use of multivalent synthetic ligands of surface nucleolin for treating cancer or inflammation” (Centre National de la Recherche Scientifique (CNRS), priority 2006, dated 2013) are described below.

The chains behind the UniProt entries cited, without tags or fusion partners.
UniProt P19338, whole entry: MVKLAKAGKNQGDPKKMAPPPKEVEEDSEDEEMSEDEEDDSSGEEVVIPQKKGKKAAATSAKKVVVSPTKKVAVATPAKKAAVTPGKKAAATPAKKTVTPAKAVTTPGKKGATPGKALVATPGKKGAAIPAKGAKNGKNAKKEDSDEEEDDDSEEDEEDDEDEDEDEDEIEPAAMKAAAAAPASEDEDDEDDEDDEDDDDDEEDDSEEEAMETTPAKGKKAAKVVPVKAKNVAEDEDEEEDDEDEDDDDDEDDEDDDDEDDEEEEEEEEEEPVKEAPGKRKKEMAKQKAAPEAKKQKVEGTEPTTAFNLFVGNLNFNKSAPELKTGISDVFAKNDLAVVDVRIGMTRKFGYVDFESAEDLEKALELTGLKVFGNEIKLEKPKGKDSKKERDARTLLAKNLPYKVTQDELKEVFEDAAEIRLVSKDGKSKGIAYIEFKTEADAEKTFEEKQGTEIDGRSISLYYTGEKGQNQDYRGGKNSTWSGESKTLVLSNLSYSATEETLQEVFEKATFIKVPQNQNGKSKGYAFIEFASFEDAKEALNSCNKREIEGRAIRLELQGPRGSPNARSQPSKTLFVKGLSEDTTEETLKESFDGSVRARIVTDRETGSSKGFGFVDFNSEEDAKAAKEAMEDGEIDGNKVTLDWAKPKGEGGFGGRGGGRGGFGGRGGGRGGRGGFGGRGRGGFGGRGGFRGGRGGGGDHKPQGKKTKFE

The structures appear in SMILES notation. Where two headings read alike, the source gives them in different places.

Format in all cases: cell-based
Data set [1] deals with NIH-3T3 cells. The method, then:
FIG. 3. Effect of A. anti-nucleolin (anti Nu), B. isotypical IgG, C. peptide F3, and D. HB-19 on the proliferation of NIH-3T3 cells stimulated by HARP. Quiescent NIH-3T3 cells are stimulated or not by 4 nM of HARP in the presence or not of HB19 at the concentrations indicated. After 24 hours of incubation, cell proliferation was determined by measuring the incorporation of tritiated thymidine. The results are given as a percentage with respect to the control stimulated by HARP (100%). MSD (threshold), (**p<0.01 and ***p<0.001).
FIG. 4. Effect of pretreatment of NIH-3T3 cells with HB19 for one hour on proliferation induced by HARP. NIH-3T3 cells were treated with HB19 for one hour then washed and stimulated or not by 3.6 nM of HARP. After 24 hours of incubation, cell proliferation was determined by measuring the incorporation of tritiated thymidine. The results are given as a percentage with respect to the control stimulated by HARP (100%). MSD (threshold), (**p<0.01 and ***p<0.001).
FIG. 12. Effect of HB-19 and Nucant 01 on the growth of NIH-3T3 cells stimulated by HARP. Quiescent NIH-3T3 cells were stimulated or not by 4 nM of HARP in the presence of HB19 or Nucant 01 at the concentrations indicated. After 24 hours of incubation, cell proliferation was determined by measuring the incorporation of tritiated thymidine. The results (mean of 3 points) are given as the percentage of cell proliferation with respect to the control stimulated by HARP in the absence of HB19 and Nucant 01 (100% cell proliferation).
FIG. 13. Effect of HB-19, Nucant 2 and Nucant 3 on the growth of NIH-3T3 cells stimulated by HARP. Quiescent NIH-3T3 cells were stimulated or not by 4 nM of HARP in the presence of HB19, Nucant 2 or Nucant 3 at the concentrations indicated (0.1, 0.25 and 0.5>M). After 24 hours of incubation, cell proliferation of NIH-3T3 cells was determined by measuring the incorporation of tritiated thymidine. The results (mean of 3 points) are given as the percentage of cell proliferation with respect to the control stimulated by HARP (100% cell proliferation). The IC50 concentrations (concentration leading to 50% inhibition of cell proliferation with respect to the control stimulated by HARP) are also given.
The role played by nucleolin in the biological activity of the HARP molecule was studied in a series of experiments: the mitogenic activity of HARP, tested by measuring the incorporation of tritiated thymidine by NIH 3T3 cells, was evaluated in the presence or absence of a monoclonal antibody which specifically recognizes nucleolin.
The effect of Nucant 01 on the proliferation of NIH-3T3 cells stimulated by HARP was compared with that of pentavalent compound HB-19. Quiescent NIH-3T3 cells were stimulated or not by 4 nM of HARP in the presence of HB19 or Nucant 01 at the concentrations indicated (0.1, 0.2, 0.4, 1, 2 and 4 μM). After 24 hours of incubation, cell proliferation of NIH-3T3 cells was determined by measuring the incorporation tritiated thymidine as described earlier.
The effect of Nucant 2 and Nucant 3 on the proliferation NIH-3T3 cells triggered by HARP was compared to that of pentavalent compound HB-19. Quiescent NIH-3T3 cells were stimulated or not by 4 nM by HARP in the presence of HB19, Nucant 2, or Nucant 3 at the concentrations indicated (0.1, 0.25 and 0.5 μM). After 24 hours of incubation, cell proliferation of NIH-3T3 cells was determined by measuring the incorporation tritiated thymidine as described earlier.

Data set [2] deals with surface nucleolin (Homo sapiens, UniProt P19338). Briefly: Activity of surface nucleolin in HeLa P4 cells. Set-up: endogenous in cells; host or cells: HeLa P4 cells. On the procedure: FIG. 15. Nucant 6 and Nucant 7 show better anti-surface nucleolin activity than HB-19. ID50: concentration in μM which inhibits surface nucleolin by 50%. ID95: concentration in μM which inhibits surface nucleolin by 95%.
The activity of surface nucleolin was tested in HeLa P4 cells using the technique we have described previously (13).

The subject of data set [3] is NIH-3T3 cells. Briefly: Proliferation of NIH-3T3 cells stimulated by 5% foetal calf serum (tritiated thymidine incorporation). The conditions noted are these: non-stimulated NIH-3T3 cells. The method, then: FIG. 5. Effect of HB-19 on the proliferation of NIH-3T3 cells stimulated by 0.2 nM FGF-2 (A) or by 5% foetal calf serum (B). Quiescent NIH-3T3 cells are stimulated by FGF-2 or by 5% serum in the presence or not of HB19 at the concentrations indicated. After 24 hours of incubation, cell proliferation was determined by measuring the incorporation of tritiated thymidine. The results are given as a percentage with respect to the control stimulated by HARP (100%). MSD (threshold), (**p<0.01 and ***p<0.001).
FIG. 14. Effect of NUCANT 3, 6 and 7 on the proliferation of NIH-3T3 cells stimulated by 5% FCS. NIH-3T3 cells are made quiescent by serum deprivation are stimulated by 5% FCS in the presence or not of various NUCANT 3, 6 and 7 concentrations ranging from 0.125 to 2 μM. After 24 hours of incubation, cell proliferation was determined by measuring the incorporation of tritiated thymidine. The results are given as a percentage with respect to the control cells stimulated by 5% FCS. ID50 is indicated by the dotted line.
The effect of Nucant 3 on the proliferation of NIH-3T3 cells treated by 5% of FCS was also compared to that of compound HB-19. NIH-3T3 cells made quiescent by serum deprivation were stimulated by 5 FCS in the presence or not of different concentrations of NUCANT 3, 6 or 7 ranging from 0.125 to 2 μM. After 24 hours in incubation, cell proliferation is determined by measuring the incorporation of tritiated thymidine as described earlier.
The effect of hexavalent compounds Nucant 6 and Nucant 7 on the proliferation of NIH-3T3 cells triggered by 5% FCS was compared with that of pentavalent compound HB-19. NIH-3T3 cells made quiescent by serum deprivation stimulated by 5% FCS in the presence of various concentrations of NUCANT 3, 6 or 7 ranging from 0.125 to 2 μM. After 24 hours of incubation, cell proliferation was determined by measuring the incorporation of tritiated thymidine as described above.

In the case of `CC(=O)NC(C)(C)C(=O)N[C@@H](CCCCNC(=O)[C@H](CCCNC(=N)N)NC(=O)[C@@H]1CCCN1C[C@@H](N)CCCCN)C(=O)NC(C)(C)C(=O)NCC(=O)NC(C)(C)C(=O)N[C@@H](CCCCNC(=O)[C@H](CCCNC(=N)N)NC(=O)[C@@H]1CCCN1C[C@@H](N)CCCCN)C(=O)NC(C)(C)C(=O)NCC(=O)NC(C)(C)C(=O)N[C@@H](CCCCNC(=O)[C@H](CCCNC(=N)N)NC(=O)[C@@H]1CCCN1C[C@@H](N)CCCCN)C(=O)NC(C)(C)C(=O)NCC(=O)NC(C)(C)C(=O)N[C@@H](CCCCNC(=O)[C@H](CCCNC(=N)N)NC(=O)[C@@H]1CCCN1C[C@@H](N)CCCCN)C(=O)NC(C)(C)C(=O)NCC(=O)NC(C)(C)C(=O)N[C@@H](CCCCNC(=O)[C@H](CCCNC(=N)N)NC(=O)[C@@H]1CCCN1C[C@@H](N)CCCCN)C(=O)NC(C)(C)C(=O)NCC(N)=O` [Nucant 2], in data set [1] (24 h), the IC50 worked out at 1500 nM.

Regarding `CC(=O)N[C@@H](CCCCNC(=O)[C@H](CCCNC(=N)N)NC(=O)[C@@H]1CCCN1C[C@@H](N)CCCCN)C(=O)NC(C)(C)C(=O)NCC(=O)N[C@@H](CCCCNC(=O)[C@H](CCCNC(=N)N)NC(=O)[C@@H]1CCCN1C[C@@H](N)CCCCN)C(=O)NC(C)(C)C(=O)NCC(=O)N[C@@H](CCCCNC(=O)[C@H](CCCNC(=N)N)NC(=O)[C@@H]1CCCN1C[C@@H](N)CCCCN)C(=O)NC(C)(C)C(=O)NCC(=O)N[C@@H](CCCCNC(=O)[C@H](CCCNC(=N)N)NC(=O)[C@@H]1CCCN1C[C@@H](N)CCCCN)C(=O)NC(C)(C)C(=O)NCC(=O)N[C@@H](CCCCNC(=O)[C@H](CCCNC(=N)N)NC(=O)[C@@H]1CCCN1C[C@@H](N)CCCCN)C(=O)NC(C)(C)C(=O)NCC(N)=O` [Nucant 3], the IC50 was 1500 nM in data set [1] (4 nM HARP, experiment of FIG. 13, read-out: IC50 (concentration leading to 50% inhibition of cell proliferation)) and 100 to 200 nM in data set [2]. Moreover, the “effect on non-stimulated cells (toxicity)” value in data set [3] is reported as “No effect”.

The term inhibition denotes the percentage by which the read-out fell short of the control. A low value points to a response near the control. As for `CC(=O)N[C@@H](CCCCNC(=O)[C@H](CCCNC(=N)N)NC(=O)[C@@H]1CCCN1C[C@@H](N)CCCCN)C(=O)NC(C)(C)C(=O)NCC(=O)N[C@@H](CCCCNC(=O)[C@H](CCCNC(=N)N)NC(=O)[C@@H]1CCCN1C[C@@H](N)CCCCN)C(=O)NC(C)(C)C(=O)NCC(=O)N[C@@H](CCCCNC(=O)[C@H](CCCNC(=N)N)NC(=O)[C@@H]1CCCN1C[C@@H](N)CCCCN)C(=O)NC(C)(C)C(=O)NCC(=O)N[C@@H](CCCCNC(=O)[C@H](CCCNC(=N)N)NC(=O)[C@@H]1CCCN1C[C@@H](N)CCCCN)C(=O)NC(C)(C)C(=O)NCC(=O)N[C@@H](CCCCNC(=O)[C@H](CCCNC(=N)N)NC(=O)[C@@H]1CCCN1C[C@@H](N)CCCCN)C(=O)NC(C)(C)C(=O)NCC(=O)N[C@@H](CCCCNC(=O)[C@H](CCCNC(=N)N)NC(=O)[C@@H]1CCCN1C[C@@H](N)CCCCN)C(=O)NC(C)(C)C(=O)NCC(N)=O` [Nucant 6], in data set [2] (HeLa P4 cells, read-out: ID50 value (Inhibitory Dose at 50%), surface nucleolin activity), the IC50 was under 100 nM. In data set [2] (M-HeLa, 0.8 μM, HeLa P4 cells), the inhibition at 0.8 µM was over 95%. In addition, in data set [3], the “effect on non-stimulated cells (toxicity)” value was “No effect”.
